Assay results taken from US8865865B2, “N-terminally modified tetrapeptide derivatives having a C-terminal arginine mimetic” (Philipps-Universitat Marburg, priority 2008, dated 2014).

Chains of the proteins cited; added tags and fusions are not shown. Residues count along the entry.
UniProt P09958, 108-794 limits assumed: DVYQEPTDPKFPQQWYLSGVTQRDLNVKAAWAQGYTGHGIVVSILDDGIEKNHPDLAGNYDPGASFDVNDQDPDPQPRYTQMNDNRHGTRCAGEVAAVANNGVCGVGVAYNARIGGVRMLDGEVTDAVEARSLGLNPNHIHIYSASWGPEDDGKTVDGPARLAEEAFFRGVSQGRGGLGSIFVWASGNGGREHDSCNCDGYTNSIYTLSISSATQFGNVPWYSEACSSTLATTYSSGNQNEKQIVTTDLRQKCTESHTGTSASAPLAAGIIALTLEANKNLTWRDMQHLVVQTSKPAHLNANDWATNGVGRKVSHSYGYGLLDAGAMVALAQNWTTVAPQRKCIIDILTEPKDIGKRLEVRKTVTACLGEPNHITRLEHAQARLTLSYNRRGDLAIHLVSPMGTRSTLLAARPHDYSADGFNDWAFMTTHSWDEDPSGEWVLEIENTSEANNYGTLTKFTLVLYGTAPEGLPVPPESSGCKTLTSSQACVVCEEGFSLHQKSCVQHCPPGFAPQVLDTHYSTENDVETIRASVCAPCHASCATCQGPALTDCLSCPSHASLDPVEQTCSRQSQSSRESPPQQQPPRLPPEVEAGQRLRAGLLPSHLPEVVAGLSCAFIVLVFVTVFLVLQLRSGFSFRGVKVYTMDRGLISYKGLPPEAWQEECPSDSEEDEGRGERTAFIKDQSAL

Molecular target: Recombinantly produced human furin (Homo sapiens, UniProt P09958)
Assay: Enzyme kinetic studies to determine the inhibitory effect on furin (fluorogenic substrate Pyr-Arg-Thr-Lys-Arg-AMC)
Settings: read-out: Ki value for the inhibition of furin; Table 2; substrate 12.5 μM, furin approx. 0.95 nM, competitive reversible model; tested form: TFA

Ki [nM]	SMILES
1600	CC(C)[C@H](NC(=O)[C@H](CCCNC(=N)N)NC(=O)Cc1ccccc1)C(=O)N[C@@H](CCCNC(=N)N)C(=O)NCCCCCNC(=N)N
68	CC(C)[C@H](NC(=O)[C@H](CCCNC(=N)N)NC(=O)Cc1ccccc1)C(=O)N[C@@H](CCCNC(=N)N)C(=O)NCC1CCN(C(=N)N)CC1
